What all share (experiment): NCI-60 one-dose screen, 48 h (100 = growth as untreated, 0 = no growth, -100 = all killed)
One test concerns DU-145 prostate. Particulars: 10 µM unless noted.
The subject of a further test is K-562 leukemia. Particulars: 10 µM unless noted.
Another test has as its system MALME-3M melanoma. To be noted: 10 µM unless noted.
The subject of the next test is MDA-MB-231 breast. Particulars: 10 µM unless noted.
The next test concerns RXF 393 renal. To be noted: 10 µM unless noted.
Another test relates to SF-268 CNS. Particulars: 10 µM unless noted.
A further test concerns SF-295 CNS. Particulars: 10 µM unless noted.
The test system of another test is SF-539 CNS. Particulars: 10 µM unless noted.
Another test deals with UACC-257 melanoma. To be noted: 10 µM unless noted.
Another test concerns M14 melanoma. To be noted: 10 µM unless noted.
A further test deals with HCT-15 colon. To be noted: 10 µM unless noted.
The subject of the next test is HT29 colon. Particulars: 10 µM unless noted.
A further test has as its system SNB-75 CNS. To be noted: 10 µM unless noted.
In another test the test system is SNB-19 CNS. To be noted: 10 µM unless noted.
The subject of the next test is U251 CNS. To be noted: 10 µM unless noted.
The next test concerns PC-3 prostate. Particulars: 10 µM unless noted.
Another test relates to SK-MEL-5 melanoma. To be noted: 10 µM unless noted.
For the next test, the system named is UACC-62 melanoma. Particulars: 10 µM unless noted.
Another test has as its system LOX IMVI melanoma. To be noted: 10 µM.
The next test deals with SK-MEL-28 melanoma. Particulars: 10 µM unless noted.

The list shows a part of the results, in another mix than the full data.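 Note: values are percent growth. 100 is the growth of untreated cells, values between 100 and 0 indicate rising inhibition; between -100 and 0 indicates cell death.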 Active and inactive are the calls of the source. How the source made its calls: active means growth percent below 10; inactive means the rest.

`Cc1ccc(S(=O)(=O)n2cc(C3(O)CC(CC#N)OC3=O)c3cc(Br)ccc32)cc1` (stereo not given): the growth with DU-145 prostate is inactive: 106%; in the test with K-562 leukemia, inactive: 96.1%; with MALME-3M melanoma, inactive: 125%; with MDA-MB-231 breast, inactive: 107%; in the test on RXF 393 renal it was inactive: 93.9%; in the test on SF-268 CNS it was inactive: 103%. Besides, the growth in the test on SF-295 CNS was inactive: 101%; with SF-539 CNS, inactive: 101%; with UACC-257 melanoma, inactive: 103%; in the test on M14 melanoma, inactive: 115%; in the test with HCT-15 colon, inactive: 98.3%; in the test with HT29 colon, inactive: 115%. Besides, the growth was inactive: 94.7% with SNB-75 CNS; inactive: 90.8% in the test with SNB-19 CNS; inactive: 109% with U251 CNS; inactive: 90.6% with PC-3 prostate; inactive: 98.2% with SK-MEL-5 melanoma; inactive: 102% with UACC-62 melanoma. Besides, the growth in the test with LOX IMVI melanoma is inactive: 93%; in the test with SK-MEL-28 melanoma it was inactive: 114%.

For the compound `COC(=O)C1(C)COP(=O)(N2CCCC2)OC1` (stereo not given), the growth in the test on DU-145 prostate was inactive: 111%; in the test on K-562 leukemia, inactive: 94.3%; in the test with MALME-3M melanoma, inactive: 100%; in the test with MDA-MB-231 breast it was inactive: 115%; in the test on RXF 393 renal it was inactive: 118%; in the test on SF-268 CNS it was inactive: 97.5%. Moreover, the growth with SF-295 CNS was inactive: 111%; in the test on SF-539 CNS, inactive: 107%; in the test on UACC-257 melanoma it was inactive: 100%; in the test with M14 melanoma, inactive: 99.1%; in the test with HCT-15 colon, inactive: 104%; with HT29 colon, inactive: 98.7%. In addition, the growth in the test on SNB-75 CNS is inactive: 90.4%; in the test on SNB-19 CNS, inactive: 106%; in the test with U251 CNS it was inactive: 105%; with PC-3 prostate it was inactive: 95.9%; in the test with SK-MEL-5 melanoma, inactive: 107%; with UACC-62 melanoma, inactive: 105%. The figures for the growth with LOX IMVI melanoma and with SK-MEL-28 melanoma were inactive: 97.8% and inactive: 106%, respectively.

For the compound `Cc1ccc(Sc2ccc([N+](=O)[O-])cc2[N+](=O)[O-])c([N+](=O)[O-])c1`, the growth with DU-145 prostate was active: -8.75%; in the test on K-562 leukemia, active: 7.74%; with MALME-3M melanoma, inactive: 75.3%; in the test on MDA-MB-231 breast, inactive: 31.9%; in the test on RXF 393 renal, inactive: 23.2%; in the test on SF-268 CNS, inactive: 32.6%. Also, the growth is active: 3.73% with SF-295 CNS; inactive: 14.2% with SF-539 CNS; active: -25% with UACC-257 melanoma; active: 1.56% in the test with M14 melanoma; inactive: 12.3% in the test with HCT-15 colon; active: -19.5% with HT29 colon. The growth with SNB-75 CNS was inactive: 41.5%; in the test on SNB-19 CNS it was inactive: 31.4%; with U251 CNS, active: 2.59%; in the test with PC-3 prostate, inactive: 17.8%; in the test with SK-MEL-5 melanoma it was active: 1.13%; with UACC-62 melanoma, inactive: 34.3%. In addition, the growth in the test with LOX IMVI melanoma is inactive: 14.7%; in the test with SK-MEL-28 melanoma, inactive: 54.3%.

Turning to `CCN(CCCl)Cc1cccc2ccccc12`, the growth was inactive: 113% in the test on DU-145 prostate; inactive: 97.9% in the test with K-562 leukemia; inactive: 107% in the test on MALME-3M melanoma; inactive: 108% in the test on MDA-MB-231 breast; inactive: 118% in the test with RXF 393 renal; inactive: 101% with SF-268 CNS. In addition, the growth was inactive: 109% with SF-295 CNS; inactive: 99.5% in the test on SF-539 CNS; inactive: 111% in the test with UACC-257 melanoma; inactive: 108% with M14 melanoma; inactive: 97.3% in the test with HCT-15 colon; inactive: 93.3% with HT29 colon. Also, the growth with SNB-75 CNS was inactive: 39.7%; with SNB-19 CNS, inactive: 102%; in the test on U251 CNS, inactive: 88.1%; in the test with PC-3 prostate it was inactive: 85.4%; in the test with SK-MEL-5 melanoma, inactive: 102%; with UACC-62 melanoma, inactive: 99.2%. Moreover, the growth in the test with LOX IMVI melanoma was inactive: 107%; in the test with SK-MEL-28 melanoma it was inactive: 103%.

In the case of `Nc1nnc(N)nn1`, the growth is inactive: 119% with DU-145 prostate; inactive: 125% in the test on K-562 leukemia; inactive: 97.6% with MALME-3M melanoma; inactive: 104% in the test on MDA-MB-231 breast; inactive: 113% with RXF 393 renal; inactive: 106% in the test with SF-268 CNS. The growth was inactive: 91.8% in the test with SF-295 CNS; inactive: 99.4% with SF-539 CNS; inactive: 111% with UACC-257 melanoma; inactive: 113% in the test on M14 melanoma; inactive: 103% with HCT-15 colon; inactive: 103% in the test on HT29 colon. Besides, the growth was inactive: 102% with SNB-75 CNS; inactive: 113% in the test on SNB-19 CNS; inactive: 101% with U251 CNS; inactive: 99.7% in the test on PC-3 prostate; inactive: 107% in the test with SK-MEL-5 melanoma; inactive: 107% in the test on UACC-62 melanoma. The growth in the test with LOX IMVI melanoma was inactive: 92.1%; in the test with SK-MEL-28 melanoma, inactive: 115%.

Take `CC(C)OP(=S)(Cl)OC(C)C`: the growth in the test on DU-145 prostate is inactive: 110%; in the test on K-562 leukemia, inactive: 91.4%; in the test with MALME-3M melanoma, inactive: 86.6%; in the test with MDA-MB-231 breast it was inactive: 127%; in the test with RXF 393 renal it was inactive: 109%; with SF-268 CNS it was inactive: 108%. The growth in the test with SF-295 CNS is inactive: 99.4%; in the test on SF-539 CNS, inactive: 98.2%; in the test with UACC-257 melanoma, inactive: 106%; in the test on M14 melanoma it was inactive: 108%; with HCT-15 colon, inactive: 107%; with HT29 colon it was inactive: 101%. For the same compound, the growth is inactive: 83.2% in the test with SNB-75 CNS; inactive: 106% in the test with SNB-19 CNS; inactive: 104% in the test on U251 CNS; inactive: 97.4% in the test with PC-3 prostate; inactive: 111% with SK-MEL-5 melanoma; inactive: 118% in the test on UACC-62 melanoma. Further, the growth is inactive: 103% in the test with LOX IMVI melanoma and inactive: 105% with SK-MEL-28 melanoma.

Turning to `O=C(Nc1ccc([N+](=O)[O-])cc1)N(CCBr)CCBr`, the growth in the test on DU-145 prostate is inactive: 114%; in the test with K-562 leukemia, inactive: 104%; in the test on MALME-3M melanoma, inactive: 96.1%; with MDA-MB-231 breast it was inactive: 110%; in the test with RXF 393 renal it was inactive: 104%; in the test with SF-268 CNS, inactive: 102%. The growth was inactive: 95.5% with SF-295 CNS; inactive: 97% in the test with SF-539 CNS; inactive: 99.4% with UACC-257 melanoma; inactive: 97.7% in the test on M14 melanoma; inactive: 95% in the test on HCT-15 colon; inactive: 101% in the test with HT29 colon. The growth with SNB-75 CNS is inactive: 77.6%; with SNB-19 CNS it was inactive: 102%; in the test on U251 CNS, inactive: 93.2%; in the test on PC-3 prostate, inactive: 92.9%; in the test on SK-MEL-5 melanoma, inactive: 97.8%; in the test on UACC-62 melanoma, inactive: 112%. The growth is inactive: 93.5% in the test with LOX IMVI melanoma and inactive: 102% with SK-MEL-28 melanoma.

As to `[N-]=[N+]=NC(=O)c1cccc([N+](=O)[O-])c1`, the growth in the test on DU-145 prostate is inactive: 80.6%; in the test with K-562 leukemia, inactive: 41.2%; in the test on MALME-3M melanoma, inactive: 82.3%; with MDA-MB-231 breast it was inactive: 86.8%; with RXF 393 renal, inactive: 101%; with SF-268 CNS, inactive: 96.8%. Further, the growth in the test with SF-295 CNS is inactive: 17.6%; in the test with SF-539 CNS it was inactive: 88.3%; in the test on UACC-257 melanoma, inactive: 87%; in the test with M14 melanoma, inactive: 76.8%; in the test on HCT-15 colon it was inactive: 57.4%; in the test on HT29 colon, inactive: 78.5%. For the same compound, the growth in the test on SNB-75 CNS was inactive: 105%; in the test on SNB-19 CNS, inactive: 73.4%; with U251 CNS, inactive: 58%; with PC-3 prostate it was inactive: 28.4%; in the test with SK-MEL-5 melanoma, inactive: 76%; with UACC-62 melanoma, inactive: 64.9%. The growth in the test on LOX IMVI melanoma is inactive: 60%; in the test with SK-MEL-28 melanoma, inactive: 97.4%.

Values taken from PubChem BioAssay (NCI).
